Values of other authors as cited in patent US20070203244A1, “INHIBITORS OF MEMBRANE TYPE-1 MATRIX METALLOPROTEINASE FOR THE TREATMENT OF INSULIN-DEPENDENT DIABETES MELLITUS” (priority 2006, published 2007).

Target: T1, MMP-2 (Homo sapiens, UniProt P08253)
T1 sequence (P08253 110-660): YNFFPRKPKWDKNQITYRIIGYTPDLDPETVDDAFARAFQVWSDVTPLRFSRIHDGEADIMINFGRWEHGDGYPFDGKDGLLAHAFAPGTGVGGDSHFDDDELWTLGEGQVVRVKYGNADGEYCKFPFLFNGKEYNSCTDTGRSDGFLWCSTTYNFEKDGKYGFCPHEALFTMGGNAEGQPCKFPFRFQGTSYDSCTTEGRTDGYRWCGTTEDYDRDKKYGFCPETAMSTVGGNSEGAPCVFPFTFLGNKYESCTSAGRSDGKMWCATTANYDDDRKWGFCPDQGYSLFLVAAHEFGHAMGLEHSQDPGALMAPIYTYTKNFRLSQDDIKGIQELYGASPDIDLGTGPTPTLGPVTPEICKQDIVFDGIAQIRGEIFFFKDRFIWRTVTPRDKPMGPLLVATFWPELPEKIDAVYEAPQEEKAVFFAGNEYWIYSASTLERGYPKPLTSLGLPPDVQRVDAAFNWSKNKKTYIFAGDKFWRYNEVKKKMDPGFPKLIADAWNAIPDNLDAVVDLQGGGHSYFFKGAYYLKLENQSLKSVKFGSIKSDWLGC
Conditions: read-out: EC50 against MMP-2; cited from earlier work

Question: For `CC(C)[C@H](NS(=O)(=O)c1ccc(-c2ccc(Br)cc2)cc1)C(=O)O` [PD166793, (S)-2-(4′-bromo-biphenyl-4-sulfonylamino)-3-methyl-butyric acid], which EC50 is on record?
Answer: Its EC50 is 47 nM.
